Results on one compound are retold here after paper PMC6017588, “Synthesis and Structure-Activity Relationships of LP1 Derivatives: N-Methyl-N-phenylethylamino Analogues as Novel MOR Agonists” (Molecules : A Journal of Synthetic Chemistry and Natural …, 2018).

Chains of the proteins cited; added tags and fusions are not shown.
UniProt P33535, whole entry: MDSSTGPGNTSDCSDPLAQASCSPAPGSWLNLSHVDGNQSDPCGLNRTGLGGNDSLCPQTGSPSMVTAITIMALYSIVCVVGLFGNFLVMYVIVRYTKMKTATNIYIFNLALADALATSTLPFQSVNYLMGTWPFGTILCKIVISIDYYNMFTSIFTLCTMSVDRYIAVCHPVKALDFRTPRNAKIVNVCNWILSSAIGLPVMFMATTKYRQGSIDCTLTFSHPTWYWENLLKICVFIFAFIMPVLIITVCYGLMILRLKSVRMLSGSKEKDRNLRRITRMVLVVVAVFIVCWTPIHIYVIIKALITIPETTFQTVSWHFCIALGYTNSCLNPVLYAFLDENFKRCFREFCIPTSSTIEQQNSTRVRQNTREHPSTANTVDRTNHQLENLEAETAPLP

The target of this assay is MOR (Rattus norvegicus, UniProt P33535). The assay can be described thus: MOR competitive radioligand binding ([3H]-DAMGO displacement, rat brain membranes). The arrangement: from tissue; host or cells: rat brain membranes. The settings on record: read-out: Ki (nM) ± SEM MOR.

With `C[C@@H](NC(=O)[C@@H](N)Cc1ccc(O)cc1)C(=O)NCC(=O)N(C)[C@@H](Cc1ccccc1)C(=O)NCCO` [DAMGO, reference compound], the Ki (usually the equilibrium dissociation constant of an inhibitor or competing ligand from its target) is 1.16 ± 0.1 nM.
